The assay deals with GPR139 (Homo sapiens (Human), UniProt Q6DWJ6). Briefly: Agonistic activity on GPR139, calcium flux detection assay (FLIPR) in transfected CHO-K1 cells. Type of assay: cell-based. Background: A change in cytosolic calcium serves as a functional read-out for many receptors and channels.

By UniProt entry, the sequences of proteins in these tests, tags left out.
UniProt Q6DWJ6, whole entry, species assumed: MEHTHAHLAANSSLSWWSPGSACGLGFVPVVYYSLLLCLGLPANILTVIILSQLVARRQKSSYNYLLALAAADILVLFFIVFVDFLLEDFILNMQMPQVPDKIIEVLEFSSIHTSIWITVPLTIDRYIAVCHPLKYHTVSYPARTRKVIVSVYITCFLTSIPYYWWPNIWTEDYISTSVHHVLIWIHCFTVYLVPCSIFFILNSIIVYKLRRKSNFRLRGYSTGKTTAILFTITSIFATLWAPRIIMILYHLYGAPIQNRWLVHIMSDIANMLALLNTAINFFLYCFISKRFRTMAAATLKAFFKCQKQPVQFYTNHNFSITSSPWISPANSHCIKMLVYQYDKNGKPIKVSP

A word on the Emax: it is the size of the effect at its maximum, as opposed to the concentration needed. In the case of `Cc1ccc([C@H](C)NC(=O)Cn2ncc3c(C)cc(C)n3c2=O)cc1` [Compound I-18, (S)-2-(6,8-dimethyl-4-oxopyrrolo[1,2-d][1,2,4]triazin-3(4H)yl)-N-(1-(p-tolyl)ethyl)acetamide], the Emax is 105%. To `C[C@H](NC(=O)Cn1ncc2cccn2c1=O)c1ccccc1` [Compound I-4, (S)-2-(4-oxopyrrolo[1,2-d][1,2,4]triazin-3(4H)yl)-N-(1-phenylethyl)acetamide] belongs 99%; to `Cc1ccc2cnn(CC(=O)N[C@@H](C)c3ccccc3)c(=O)n12` [Compound I-14, (S)-2-(6-methyl-4-oxopyrrolo[1,2-d][1,2,4]triazin-3(4H)yl)-N-(1-phenylethyl)acetamide], 111%. For `Cc1cc(C)n2c(=O)n(CC(=O)N[C@@H](C)c3ccc(Cl)cc3)ncc12` [Compound I-22, (S)—N-1-(4-chlorophenyl)ethyl-2-(6,8-dimethyl-4-oxopyrrolo[1,2-d][1,2,4]triazin-3(4H)yl)acetamide] the value was 104%.

Source of the values: patent US20250163065A1, “PYRROLOTRIAZINONE COMPOUND, PHARMACEUTICAL COMPOSITION COMPRISING SAME, PREPARATION METHOD THEREFOR, AND USE THEREOF” (SHANGHAITECH UNIVERSITY, priority 2022, published 2025).
